Target: T1, canine TRPM8 (Canis lupus familiaris, UniProt Q1A7N1)
T1 construct: expressed in transfected cells
Experiment: In Vitro Canine TRPM8 Functional Assay (icilin-induced intracellular Ca2+ fluorescence, FLIPR/FDSS)
Format: cell-based
Conditions: HEK293 cells stably expressing canine TRPM8
Method: The functional activity of representative compounds of the formula (I) of the present invention were measured by measuring changes in intracellular calcium concentration using a Ca^2+-sensitive fluorescent dye. The changes in fluorescent signal were monitored by a fluorescence plate reader, either a FLIPR™ (Molecular Devices) or FDSS (Hamamatsu).
HEK293 cells stably expressing canine TRPM8 were routinely grown as monolayers in Dulbecco's minimum essential medium supplemented with 10% FBS, 2 mM L-glutamine, 100 units/mL penicillin, 100 ug/mL streptomycin and 400 μg/mL G418. Cells were maintained in 5% CO2 at 37° C. […] Cells were challenged with compounds of the formula (I) (at varying concentrations) and intracellular Ca^2+ was measured for 5 min prior to the addition of icilin to all wells to achieve a final concentration that produces approximately an 80% maximal response.
Basal FI was subtracted prior to normalizing data to percent of maximal response. Curves were generated using the average of quadruplicate wells for each data point, were analyzed using nonlinear regression of either sigmoidal dose response or sigmoidal dose response (variable slope). Finally, the EC50 and IC50 values were calculated with the best-fit dose curve determined by GraphPad Prism

By UniProt entry, the sequences of proteins in these tests, tags left out. Residues count along the entry.
UniProt Q1A7N1, 1-1104: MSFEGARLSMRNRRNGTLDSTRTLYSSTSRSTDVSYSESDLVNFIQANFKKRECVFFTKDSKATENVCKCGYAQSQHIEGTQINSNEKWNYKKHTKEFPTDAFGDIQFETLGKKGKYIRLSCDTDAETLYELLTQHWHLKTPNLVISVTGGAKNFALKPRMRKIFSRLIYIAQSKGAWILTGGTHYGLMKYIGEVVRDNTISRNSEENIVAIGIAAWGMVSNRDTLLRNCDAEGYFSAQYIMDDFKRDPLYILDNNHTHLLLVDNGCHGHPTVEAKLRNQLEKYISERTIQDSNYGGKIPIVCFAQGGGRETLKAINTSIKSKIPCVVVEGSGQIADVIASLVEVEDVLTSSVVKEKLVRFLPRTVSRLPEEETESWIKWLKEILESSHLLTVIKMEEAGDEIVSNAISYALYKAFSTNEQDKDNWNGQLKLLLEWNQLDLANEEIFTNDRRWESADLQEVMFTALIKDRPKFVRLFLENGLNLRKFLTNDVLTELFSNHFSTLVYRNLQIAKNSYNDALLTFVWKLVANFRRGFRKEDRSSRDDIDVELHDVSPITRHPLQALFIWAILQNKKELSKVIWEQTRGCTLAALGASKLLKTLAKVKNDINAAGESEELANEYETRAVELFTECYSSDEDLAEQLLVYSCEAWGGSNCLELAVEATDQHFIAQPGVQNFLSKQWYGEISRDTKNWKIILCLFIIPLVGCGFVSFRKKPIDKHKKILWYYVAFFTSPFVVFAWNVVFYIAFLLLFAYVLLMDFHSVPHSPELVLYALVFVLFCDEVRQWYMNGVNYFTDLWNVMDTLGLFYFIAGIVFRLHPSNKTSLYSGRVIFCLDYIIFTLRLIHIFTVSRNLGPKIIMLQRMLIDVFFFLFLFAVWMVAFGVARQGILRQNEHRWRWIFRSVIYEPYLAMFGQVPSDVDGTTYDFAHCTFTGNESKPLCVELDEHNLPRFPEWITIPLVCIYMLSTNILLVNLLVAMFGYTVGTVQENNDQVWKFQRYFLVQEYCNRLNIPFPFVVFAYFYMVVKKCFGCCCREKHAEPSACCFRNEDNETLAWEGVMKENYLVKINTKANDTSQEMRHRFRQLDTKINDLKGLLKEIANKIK

% Inh @ 0.2 μM (0.2 μM test compound, icilin challenge): 76% | IC50 (icilin challenge (~80% maximal response), eight-point dose-response): 50 nM
Substance: (E)-2-(2-Cyclohexyl-vinyl)-5-(2-trifluoromethyl-pyridin-4-yl)-1H-benzimidazole hydrochloride [Compound 55]

Reference: patent publication US8217060B2, “Benzimidazole derivatives useful as TRP M8 receptor modulators” (Janssen Pharmaceutica, NV, priority 2009, dated 2012)
